Values quoted from earlier work, collected in article PMC5831161, “Crystal structure correlations with the intrinsic thermodynamics of human carbonic anhydrase inhibitor binding” (PeerJ, 2018).

Protein sequences, listed by entry. Tags and fused reporters are not part of them. Lines headed by an entry give the natural chain unless they say otherwise; changes in a name come on top. Residues count along the entry.
UniProt O43570, 30-291 limits assumed: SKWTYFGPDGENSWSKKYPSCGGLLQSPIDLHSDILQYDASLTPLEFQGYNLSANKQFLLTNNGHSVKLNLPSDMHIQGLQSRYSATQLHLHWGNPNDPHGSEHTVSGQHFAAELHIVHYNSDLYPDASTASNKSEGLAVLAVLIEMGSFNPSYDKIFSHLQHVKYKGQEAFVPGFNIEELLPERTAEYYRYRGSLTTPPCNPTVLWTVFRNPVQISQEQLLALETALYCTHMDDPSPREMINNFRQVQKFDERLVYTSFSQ
UniProt Q8N1Q1: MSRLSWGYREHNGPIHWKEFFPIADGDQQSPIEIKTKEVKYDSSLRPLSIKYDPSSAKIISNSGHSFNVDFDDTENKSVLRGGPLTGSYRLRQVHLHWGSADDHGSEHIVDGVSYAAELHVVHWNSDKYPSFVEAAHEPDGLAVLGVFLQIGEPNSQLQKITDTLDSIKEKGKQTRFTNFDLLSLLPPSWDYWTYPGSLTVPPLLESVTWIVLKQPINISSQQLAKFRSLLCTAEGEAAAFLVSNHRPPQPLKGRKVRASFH

Key:
CA XII [1] = target: T1, CA XII (Homo sapiens, UniProt O43570); design: made in house; conditions: ref Kišonaitė et al. (2014), Zubrienė et al. (2015), Zubrienė et al. (2016), cited from earlier work
CA XIII [2] = target: T2, CA XIII (Homo sapiens, UniProt Q8N1Q1); design: made in house; conditions: intrinsic Gibbs energy of binding, ref Kišonaitė et al. (2014), Zubrienė et al. (2015), Zubrienė et al. (2016); cited from earlier work
CA XIII [3] = target: T2, CA XIII; conditions: ref Kišonaitė et al. (2014), Zubrienė et al. (2015), Zubrienė et al. (2016), cited from earlier work
CA XII [4] = target: T1, CA XII; design: made in house; conditions: intrinsic Gibbs energy of binding, ref Kišonaitė et al. (2014), Zubrienė et al. (2015), Zubrienė et al. (2016); cited from earlier work

NS(=O)(=O)c1c(F)c(F)c(S(=O)(=O)CCO)c(F)c1F [Compound 10]
ΔH (CA XII [1]; intrinsic enthalpy of binding): -5.88 kcal/mol
−TΔS (CA XII [1]; intrinsic entropy term): -4.71 kcal/mol
ΔG (CA XIII [2]): -11.4 kcal/mol
ΔH (CA XIII [3]; intrinsic enthalpy of binding): -12 kcal/mol
−TΔS (CA XIII [3]; intrinsic entropy term): 0.645 kcal/mol
ΔG (CA XII [4]): -10.6 kcal/mol
